# Permeability data for macrocyclic peptides

Values of Townsend et al. 2020, doi:10.26434/chemrxiv.13335941.v1, as listed in CycPeptMPDB.

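The data file gives no further conditions (lipid, pH, time, direction or concentration), and values from different papers need not be comparable. Other peptides of the study may be missing here. Entries at the database's floor value (log10 P of -10) are not listed.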

PAMPA is the parallel artificial membrane permeability assay, which has no cells and reads passive diffusion. Permeability is given as log10 of P in cm/s; higher (less negative) is more permeable.

PAMPA (log10 cm/s),compound
-5.76,CCCN1CC(=O)N[C@@H](CC(C)C)C(=O)N[C@@H](Cc2ccccc2)CC(=O)N2CCC[C@H]2C(=O)N(C)[C@@H](CC(C)C)C(=O)N[C@@H](Cc2ccccc2)C(=O)N2CCC[C@H]2C1=O
-5.83,CCCN1CC(=O)N[C@H](CC(C)C)C(=O)N[C@@H](Cc2ccccc2)CC(=O)N2CCC[C@@H]2C(=O)N(C)[C@H](CC(C)C)C(=O)N[C@@H](Cc2ccccc2)C(=O)N2CCC[C@H]2C1=O
-5.22,CC(C)C[C@H]1C(=O)N[C@@H](Cc2ccccc2)C(=O)N(C)[C@@H](C)C(=O)N(C)[C@@H](CC(C)C)C(=O)N[C@@H](Cc2ccccc2)CC(=O)N2CCC[C@@H]2C(=O)N1C
-6.77,CC(C)C[C@@H]1NC(=O)[C@H]2CCCN2C(=O)CN(Cc2ccccc2)C(=O)[C@H](CC(C)C)N(C)C(=O)[C@@H](C)NC(=O)[C@H]2CCCN2C(=O)[C@H](Cc2ccccc2)NC1=O
-5.90,CC(C)C[C@@H]1NC(=O)[C@@H](C)NC(=O)[C@H]2CCCN2C(=O)[C@H](Cc2ccccc2)NC(=O)[C@H](CC(C)C)N(C)C(=O)[C@@H]2CCCN2C(=O)CN(Cc2ccccc2)C1=O
-6.26,CC(C)C[C@@H]1NC(=O)[C@H](C)NC(=O)[C@H]2CCCN2C(=O)[C@H](Cc2ccccc2)NC(=O)[C@H](CC(C)C)NC(=O)[C@@H]2CCCN2C(=O)[C@@H](CC(C)C)NC1=O
-5.35,CC(C)C[C@@H]1NC(=O)[C@@H](C)N(C)C(=O)[C@@H]2CCCN2C(=O)[C@H](Cc2ccccc2)NC(=O)[C@@H](CC(C)C)N(C)C(=O)[C@H]2CCCN2C(=O)[C@@H](CC(C)C)NC1=O
-6.00,CC(C)C[C@@H]1NC(=O)[C@H](C)NC(=O)[C@H](Cc2ccccc2)NC(=O)[C@H](CC(C)C)N(C)C(=O)[C@H]2CCCN2C(=O)C[C@H](Cc2ccccc2)NC1=O
-5.28,CC(C)C[C@H]1C(=O)N(C)[C@@H](CC(C)C)C(=O)N2CCC[C@H]2C(=O)N(C)[C@@H](CC(C)C)C(=O)N[C@@H](Cc2ccccc2)C(=O)N2CCC[C@H]2C(=O)N[C@H](C)C(=O)N1C
-5.46,CC(C)C[C@@H]1C(=O)N(Cc2ccccc2)CC(=O)N2CCC[C@H]2C(=O)N(Cc2ccccc2)CC(=O)N[C@@H](Cc2ccccc2)C(=O)N2CCC[C@@H]2C(=O)N(C)[C@@H](C)C(=O)N1C
-5.61,CC(C)C[C@@H]1C(=O)N[C@@H](Cc2ccccc2)C(=O)N2CCC[C@H]2C(=O)N[C@@H](Cc2ccccc2)CC(=O)N[C@H](CC(C)C)C(=O)N[C@@H](Cc2ccccc2)CC(=O)N2CCC[C@@H]2C(=O)N1C
-5.08,CC(C)C[C@H]1NC(=O)[C@@H]2CCCN2C(=O)[C@H](CC(C)C)N(C)C(=O)[C@H](CC(C)C)N(C)C(=O)[C@H](C)N(C)C(=O)[C@H](Cc2ccccc2)NC1=O
-5.46,CC(C)C[C@@H]1NC(=O)[C@H](CC(C)C)N(C)C(=O)[C@@H](C)N(C)C(=O)[C@H]2CCCN2C(=O)[C@H](Cc2ccccc2)NC(=O)[C@@H](CC(C)C)N(C)C(=O)[C@H]2CCCN2C1=O
-5.20,CCCN1CC(=O)N[C@H](CC(C)C)C(=O)N[C@@H](CC(C)C)C(=O)N2CCC[C@H]2C(=O)N(C)[C@@H](CC(C)C)C(=O)N[C@@H](Cc2ccccc2)C(=O)N2CCC[C@@H]2C1=O
-5.43,CC(C)C[C@@H]1NC(=O)[C@@H]2CCCN2C(=O)[C@@H](CC(C)C)NC(=O)[C@@H](CC(C)C)NC(=O)[C@@H](C)NC(=O)[C@H](Cc2ccccc2)NC1=O
-5.12,CC(C)C[C@@H]1NC(=O)[C@@H](CC(C)C)NC(=O)C[C@H](Cc2ccccc2)NC(=O)[C@H](Cc2ccccc2)NC(=O)[C@H](CC(C)C)N(C)C(=O)[C@H]2CCCN2C1=O
-4.96,CCCN1CC(=O)N[C@H](CC(C)C)C(=O)N(C)[C@H](CC(C)C)C(=O)N2CCC[C@H]2C(=O)N[C@H](CC(C)C)C(=O)N[C@@H](Cc2ccccc2)C1=O
-6.04,CC(C)C[C@@H]1NC(=O)[C@H](C)N(C)C(=O)[C@@H]2CCCN2C(=O)[C@H](Cc2ccccc2)NC(=O)[C@@H](CC(C)C)N(C)C(=O)[C@@H]2CCCN2C(=O)CN(Cc2ccccc2)C1=O
-5.04,CC(C)C[C@@H]1NC(=O)[C@H]2CCCN2C(=O)[C@H](CC(C)C)N(C)C(=O)[C@H](CC(C)C)NC(=O)[C@H](C)N(C)C(=O)[C@H](Cc2ccccc2)NC1=O
-5.17,CC(C)C[C@@H]1C(=O)N[C@H](CC(C)C)C(=O)N2CCC[C@H]2C(=O)N(Cc2ccccc2)CC(=O)N[C@@H](Cc2ccccc2)C(=O)N2CCC[C@H]2C(=O)N(C)[C@@H](C)C(=O)N1C
-5.97,CC(C)C[C@@H]1C(=O)N[C@@H](Cc2ccccc2)C(=O)N(C)[C@H](C)C(=O)N[C@H](CC(C)C)C(=O)N[C@H](CC(C)C)C(=O)N2CCC[C@@H]2C(=O)N1C

The 2 highest values of PAMPA among the entries above:

| compound | PAMPA (log10 cm/s) |
|---|---|
| CCCN1CC(=O)N[C@H](CC(C)C)C(=O)N(C)[C@H](CC(C)C)C(=O)N2CCC[C@H]2C(=O)N[C@H](CC(C)C)C(=O)N[C@@H](Cc2ccccc2)C1=O | -4.96 |
| CC(C)C[C@@H]1NC(=O)[C@H]2CCCN2C(=O)[C@H](CC(C)C)N(C)C(=O)[C@H](CC(C)C)NC(=O)[C@H](C)N(C)C(=O)[C@H](Cc2ccccc2)NC1=O | -5.04 |